Source: US10040781B2, “Tank-binding kinase inhibitor compounds” (Gilead Sciences, Inc., priority 2014, dated 2018)
Like-named read-outs stand apart in the source and are kept apart here.

Chains of the proteins cited; added tags and fusions are not shown. Lines headed by an entry give the natural chain unless they say otherwise; changes in a name come on top.
UniProt Q9UHD2: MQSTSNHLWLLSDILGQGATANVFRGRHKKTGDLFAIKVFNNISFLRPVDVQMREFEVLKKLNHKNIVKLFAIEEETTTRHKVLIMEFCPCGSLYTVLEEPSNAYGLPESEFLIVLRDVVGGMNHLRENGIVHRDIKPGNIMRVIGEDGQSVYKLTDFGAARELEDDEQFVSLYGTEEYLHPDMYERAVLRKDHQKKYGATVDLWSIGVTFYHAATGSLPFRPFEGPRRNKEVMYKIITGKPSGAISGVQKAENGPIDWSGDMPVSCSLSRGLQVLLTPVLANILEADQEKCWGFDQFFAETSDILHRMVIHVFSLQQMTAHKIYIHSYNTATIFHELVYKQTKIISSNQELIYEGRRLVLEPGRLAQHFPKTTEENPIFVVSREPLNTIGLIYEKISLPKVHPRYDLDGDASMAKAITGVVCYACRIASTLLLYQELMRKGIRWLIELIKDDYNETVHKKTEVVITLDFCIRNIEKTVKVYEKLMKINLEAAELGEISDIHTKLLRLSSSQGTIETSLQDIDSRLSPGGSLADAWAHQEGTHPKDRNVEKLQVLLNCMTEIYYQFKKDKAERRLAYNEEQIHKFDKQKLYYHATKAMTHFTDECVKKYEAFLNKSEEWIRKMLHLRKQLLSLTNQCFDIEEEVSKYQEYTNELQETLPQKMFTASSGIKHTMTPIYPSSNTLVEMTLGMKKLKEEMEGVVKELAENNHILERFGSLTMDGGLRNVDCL
UniProt Q14164: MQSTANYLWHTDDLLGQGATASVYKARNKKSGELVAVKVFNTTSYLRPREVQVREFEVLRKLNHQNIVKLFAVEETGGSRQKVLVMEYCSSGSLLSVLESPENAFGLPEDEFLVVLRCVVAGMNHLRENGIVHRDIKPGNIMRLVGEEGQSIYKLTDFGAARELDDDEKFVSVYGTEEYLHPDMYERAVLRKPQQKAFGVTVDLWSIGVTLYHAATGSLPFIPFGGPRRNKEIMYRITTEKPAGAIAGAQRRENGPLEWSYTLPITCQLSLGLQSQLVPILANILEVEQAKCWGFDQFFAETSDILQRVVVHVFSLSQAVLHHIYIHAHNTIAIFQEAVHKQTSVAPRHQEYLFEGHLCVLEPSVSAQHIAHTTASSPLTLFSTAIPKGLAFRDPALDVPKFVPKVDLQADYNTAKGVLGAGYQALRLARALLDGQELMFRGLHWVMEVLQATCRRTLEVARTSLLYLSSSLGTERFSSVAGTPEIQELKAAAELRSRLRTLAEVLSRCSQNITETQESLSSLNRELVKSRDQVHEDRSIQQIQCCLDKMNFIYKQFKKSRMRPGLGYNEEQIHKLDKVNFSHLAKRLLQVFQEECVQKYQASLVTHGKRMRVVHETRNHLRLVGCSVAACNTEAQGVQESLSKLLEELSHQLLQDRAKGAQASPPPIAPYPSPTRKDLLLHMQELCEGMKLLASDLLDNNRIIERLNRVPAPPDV

Assays:
TBK1 = TBK1 (Homo sapiens (Human), UniProt Q9UHD2); test: TBK1 TR-FRET enzymatic assay;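 note: phosphorylation of a biotinylated Ser/Thr peptide by purified full-length recombinant TBK1, read by TR-FRET after 240 min at 25 °C, IC50 is the geometric mean of at least four runs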
IKKε = IKKε (Homo sapiens (Human), UniProt Q14164); test: IKKε TR-FRET enzymatic assay; assay type: biochemical; settings: read-out: IKKe IC50
[1] = TR-FRET, 2×Km ATP, geometric mean of minimum four determinations

IC50 (IKKε) [nM]	IC50 (IKKε; [1]) [nM]	SMILES	other results
3	–	CC1(C)CN(C(=O)CO)CC[C@H]1Oc1ccc(-c2ncnc(Nc3ccc(N4CCN(C5COC5)CC4)cc3)n2)cc1C#N (single isomer, unassigned) [Example 176]	–
14	–	N#Cc1cc(-c2ncnc(Nc3ccc(N4CCN(C5COC5)CC4)cc3)n2)ccc1O[C@@H]1CCN(C(=O)CO)C1 [Example 30, (R)-2-((1-(2-hydroxyacetyl)pyrrolidin-3-yl)oxy)-5-(4-((4-(4-(oxetan-3-yl)piperazin-1-yl)phenyl)amino)-1,3,5-triazin-2-yl)benzonitrile]	–
3	–	C[C@H](O)C(=O)N1CC[C@H](Oc2ccc(-c3ncnc(Nc4ccc(N5CCN6CCOC[C@H]6C5)cc4)n3)cc2C#N)[C@H](F)C1 [Example 619, 2-(((3R,4S)-3-fluoro-1-((S)-2-hydroxypropanoyl)piperidin-4-yl)oxy)-5-(4-((4-((R)-hexahydropyrazino[2,1-c][1,4]oxazin-8(1H)-yl)phenyl)amino)-1,3,5-triazin-2-yl)benzonitrile]	–
4	–	CC1(C)CN(C(=O)CO)CCC1Oc1ccc(-c2ncnc(Nc3ccc(N4CCN(C5COC5)CC4)cc3)n2)cc1C#N (racemic) [Example 174, 2-((1-(2-hydroxyacetyl)-3,3-dimethylpiperidin-4-yl)oxy)-5-(4-((4-(4-(oxetan-3-yl)piperazin-1-yl)phenyl)amino)-1,3,5-triazin-2-yl)benzonitrile]	–
1	–	COc1cc(Nc2ncnc(-c3ccc(OC4CCOCC4)c(C#N)c3)n2)ccc1N1CCN(C)CC1 [Example 4, 5-(4-((3-methoxy-4-(4-methylpiperazin-1-yl)phenyl)amino)-1,3,5-triazin-2-yl)-2-((tetrahydro-2H-pyran-4-yl)oxy)benzonitrile]	–
–	1	Cc1n[nH]c(C(=O)N2CC[C@H](Oc3ccc(-c4ncnc(Nc5ccc(N6CCN(C7COC7)CC6)cc5)n4)cc3C#N)[C@H](F)C2)n1 [Example 451, 2-(((3R,4S)-3-fluoro-1-(3-methyl-1H-1,2,4-triazole-5-carbonyl)piperidin-4-yl)oxy)-5-(4-((4-(4-(oxetan-3-yl)piperazin-1-yl)phenyl)amino)-1,3,5-triazin-2-yl)benzonitrile]	–
1	–	N#Cc1cc(-c2ncnc(Nc3ccc(N4CCN(C5COC5)CC4)cc3)n2)ccc1OC1CCN(C(=O)CO)CC1(F)F (racemic) [Example 151, 2-((3,3-difluoro-1-(2-hydroxyacetyl)piperidin-4-yl)oxy)-5-(4-((4-(4-(oxetan-3-yl)piperazin-1-yl)phenyl)amino)-1,3,5-triazin-2-yl)benzonitrile]	–
≥ 1000	–	N#Cc1cc(-c2ncnc(Nc3ccc4c(c3)OC(F)(F)O4)n2)ccc1OC1CCOCC1 [Example 275, 5-(4-((2,2-difluorobenzo[d][1,3]dioxol-5-yl)amino)-1,3,5-triazin-2-yl)-2-((tetrahydro-2H-pyran-4-yl)oxy)benzonitrile]	–
1	–	N#Cc1cc(-c2ncnc(Nc3ccc(N4CCN(C5COC5)CC4)cc3)n2)ccc1O[C@@H]1CCN(C(=O)CO)CC1(F)F (single isomer, unassigned) [Example 153]	–

The next lines start with the compound.

SMILES	IC50 (IKKε) [nM]	IC50 (IKKε; [1]) [nM]	other results
COc1cc(Nc2ncnc(-c3ccc(O[C@H]4CCN(C(=O)[C@H](O)CO)C[C@H]4F)c(C#N)c3)n2)ccc1N1CCN(C2COC2)CC1 [Example 579, 2-(((3R,4S)-1-((R)-2,3-dihydroxypropanoyl)-3-fluoropiperidin-4-yl)oxy)-5-(4-((3-methoxy-4-(4-(oxetan-3-yl)piperazin-1-yl)phenyl)amino)-1,3,5-triazin-2-yl)benzonitrile]	–	–	IC50 (TBK1): 2 nM
COc1cc(Nc2ncnc(-c3ccc(O[C@H]4CCN(C(=O)[C@@H](O)CO)C[C@H]4F)c(C#N)c3)n2)ccc1N1CCN(C2COC2)CC1 [Example 578, 2-(((3R,4S)-1-((S)-2,3-dihydroxypropanoyl)-3-fluoropiperidin-4-yl)oxy)-5-(4-((3-methoxy-4-(4-(oxetan-3-yl)piperazin-1-yl)phenyl)amino)-1,3,5-triazin-2-yl)benzonitrile]	–	–	IC50 (TBK1): 2 nM
N#Cc1cc(-c2ncnc(Nc3ccc(N4CCN(C5COC5)CC4)cc3)n2)ccc1O[C@H]1CCN(C(=O)[C@@H]2C[C@H](O)C(=O)N2)C[C@H]1F [Example 410, 2-(((3R,4S)-3-fluoro-1-((2S,4S)-4-hydroxy-5-oxopyrrolidine-2-carbonyl)piperidin-4-yl)oxy)-5-(4-((4-(4-(oxetan-3-yl)piperazin-1-yl)phenyl)amino)-1,3,5-triazin-2-yl)benzonitrile]	–	2	–
N#Cc1cc(-c2ncnc(Nc3ccc(N4CCN(C5COC5)CC4)cc3)n2)ccc1OCCc1c[nH]c2ccccc12 [Example 610, 2-(2-(1H-indol-3-yl)ethoxy)-5-(4-((4-(4-(oxetan-3-yl)piperazin-1-yl)phenyl)amino)-1,3,5-triazin-2-yl)benzonitrile]	≥ 1000	–	–
C[C@H](O)C(=O)N1CC[C@H](Oc2ccc(-c3ncnc(Nc4ccc(N5CCN(C6COC6)CC5)c(Cl)c4)n3)cc2C#N)[C@H](F)C1 [Example 378, 5-(4-((3-chloro-4-(4-(oxetan-3-yl)piperazin-1-yl)phenyl)amino)-1,3,5-triazin-2-yl)-2-(((3R,4S)-3-fluoro-1-((S)-2-hydroxypropanoyl)piperidin-4-yl)oxy)benzonitrile]	2	–	–
COc1cc(Nc2ncnc(-c3ccc(O[C@H]4CCN(C(=O)[C@H](C)O)C[C@H]4F)c(C#N)c3)n2)cnc1N1CCN(C2COC2)CC1 [Example 514, 2-(((3R,4S)-3-fluoro-1-((S)-2-hydroxypropanoyl)piperidin-4-yl)oxy)-5-(4-((5-methoxy-6-(4-(oxetan-3-yl)piperazin-1-yl)pyridin-3-yl)amino)-1,3,5-triazin-2-yl)benzonitrile]	–	3	–
N#Cc1cc(-c2ncnc(Nc3cnn(C(F)F)c3)n2)ccc1O[C@H]1CCN(C(=O)CO)C[C@H]1F [Example 454, 5-(4-((1-(difluoromethyl)-1H-pyrazol-4-yl)amino)-1,3,5-triazin-2-yl)-2-(((3R,4S)-3-fluoro-1-(2-hydroxyacetyl)piperidin-4-yl)oxy)benzonitrile]	–	–	IC50 (TBK1): 5 nM
COc1cc(Nc2ncnc(-c3ccc(O[C@H]4CCN(C(=O)CC#N)C[C@H]4F)c(C#N)c3)n2)ccc1N1CCN(C2COC2)CC1 [Example 558, 2-(((3R,4S)-1-(2-cyanoacetyl)-3-fluoropiperidin-4-yl)oxy)-5-(4-((3-methoxy-4-(4-(oxetan-3-yl)piperazin-1-yl)phenyl)amino)-1,3,5-triazin-2-yl)benzonitrile]	–	2	–
C[C@H](O)C(=O)N1CC[C@H](Oc2ccc(-c3ncnc(Nc4ccc(N5CCN(C6COC6)CC5)cc4)n3)cc2C#N)[C@H](F)C1 [Example 238, 2-(((3R,4S)-3-fluoro-1-((8)-2-hydroxypropanoyl)piperidin-4-yl)oxy)-5-(4-((4-(4-(oxetan-3-yl)piperazin-1-yl)phenyl)amino)-1,3,5-triazin-2-yl)benzonitrile]	–	–	IC50 (TBK1): 2 nM
N#Cc1cc(-c2ncnc(Nc3ccc(N4CCN(C5COC5)CC4)cc3)n2)ccc1O[C@H]1CCN(C(=O)c2cc(Cl)n[nH]2)C[C@H]1F [Example 324, 2-(((3R,4S)-1-(3-chloro-1H-pyrazole-5-carbonyl)-3-fluoropiperidin-4-yl)oxy)-5-(4-((4-(4-(oxetan-3-yl)piperazin-1-yl)phenyl)amino)-1,3,5-triazin-2-yl)benzonitrile]	–	–	IC50 (TBK1): 4 nM
C[C@H](O)C(=O)N1CC[C@H](Oc2ccc(-c3ncnc(Nc4ccc(N5CC6CCC(C5)O6)cc4)n3)cc2C#N)[C@H](F)C1 [Example 362, 5-(4-((4-(8-oxa-3-azabicyclo[3.2.1]octan-3-yl)phenyl)amino)-1,3,5-triazin-2-yl)-2-(((3R,4S)-3-fluoro-1-((S)-2-hydroxypropanoyl)piperidin-4-yl)oxy)benzonitrile]	2	–	–
Cc1cc(Nc2ncnc(-c3ccc(O[C@H]4CCN(C(=O)[C@@H](O)CO)C[C@H]4F)c(C#N)c3)n2)ccc1N1CCN(C2COC2)CC1 [Example 575, 2-(((3R,4S)-1-((S)-2,3-dihydroxypropanoyl)-3-fluoropiperidin-4-yl)oxy)-5-(4-((3-methyl-4-(4-(oxetan-3-yl)piperazin-1-yl)phenyl)amino)-1,3,5-triazin-2-yl)benzonitrile]	–	–	IC50 (TBK1): 2 nM
N#Cc1cc(-c2ncnc(Nc3ccc(N4CCN(C5COC5)CC4)cc3)n2)ccc1O[C@H]1CCN(C(=O)[C@@H]2CSC(=O)N2)C[C@H]1F [Example 530, 2-(((3R,4S)-3-fluoro-1-((R)-2-oxothiazolidine-4-carbonyl)piperidin-4-yl)oxy)-5-(4-((4-(4-(oxetan-3-yl)piperazin-1-yl)phenyl)amino)-1,3,5-triazin-2-yl)benzonitrile]	–	2	–
CC(=O)N1CC[C@H](Oc2ccc(-c3ncnc(Nc4ccc(S(C)(=N)=O)cc4)n3)cc2C#N)C(F)(F)C1 (some centres unmarked) [Example 481]	–	5	–
C[C@H](O)C(=O)N1CC[C@H](Oc2ccc(-c3ncnc(Nc4ccc(O[C@H]5CCN(C6COC6)C[C@H]5F)cc4)n3)cc2C#N)[C@H](F)C1 [Example 401, 2-(((3R,4S)-3-fluoro-1-((S)-2-hydroxypropanoyl)piperidin-4-yl)oxy)-5-(4-((4-(((3R,4S)-3-fluoro-1-(oxetan-3-yl)piperidin-4-yl)oxy)phenyl)amino)-1,3,5-triazin-2-yl)benzonitrile]	–	3	–
CN1CCN(c2ccc(Nc3ncnc(-c4ccc(OC5CCOCC5)c(C#N)c4)n3)cc2)CC1 [Example 12, 5-(4-((4-(4-methylpiperazin-1-yl)phenyl)amino)-1,3,5-triazin-2-yl)-2-((tetrahydro-2H-pyran-4-yl)oxy)benzonitrile]	–	–	IC50 (TBK1): 1 nM
N#Cc1cc(-c2ncnc(Nc3ccc(N4CCN(C5COC5)CC4)cc3)n2)ccc1O[C@H]1CCN(C(=O)[C@@H]2C[C@H](F)C(=O)N2)C[C@H]1F [Example 406, 2-(((3R,4S)-3-fluoro-1-((2S,4S)-4-fluoro-5-oxopyrrolidine-2-carbonyl)piperidin-4-yl)oxy)-5-(4-((4-(4-(oxetan-3-yl)piperazin-1-yl)phenyl)amino)-1,3,5-triazin-2-yl)benzonitrile]	–	3	–
